Experimental data from ChEMBL document CHEMBL5113413, “New peptidomimetic rhodesain inhibitors with improved selectivity towards human cathepsins” (Eur J Med Chem, 2022).

Protein sequences, listed by entry. Tags and fused reporters are not part of them. Lines headed by an entry give the natural chain unless they say otherwise; changes in a name come on top.
UniProt P07711: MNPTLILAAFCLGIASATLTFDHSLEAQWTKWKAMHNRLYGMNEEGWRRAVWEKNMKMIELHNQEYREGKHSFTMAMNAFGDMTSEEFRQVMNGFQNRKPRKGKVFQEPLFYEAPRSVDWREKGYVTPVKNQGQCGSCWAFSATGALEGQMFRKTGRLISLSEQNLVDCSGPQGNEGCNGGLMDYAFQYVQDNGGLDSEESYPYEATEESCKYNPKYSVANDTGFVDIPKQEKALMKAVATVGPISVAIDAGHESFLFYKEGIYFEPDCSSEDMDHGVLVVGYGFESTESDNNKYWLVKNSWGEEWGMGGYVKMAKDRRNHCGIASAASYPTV

Key:
[1] = target: Rhodesain (Trypanosoma brucei rhodesiense) (UniProt Q95PM0); assay: Irreversible inhibition of Trypanosoma brucei rhodesiense rhodesain assessed as Kinact using Cbz-Phe-Arg-AMC as fluorogenic substrate by fluorometric assay
[2] = target: Rhodesain (Trypanosoma brucei rhodesiense) (UniProt Q95PM0); assay: Irreversible inhibition of Trypanosoma brucei rhodesiense rhodesain assessed as second order rate constant using Cbz-Phe-Arg-AMC as fluorogenic substrate by fluorometric assay
Procathepsin L [3] = target: T1, Procathepsin L (Homo sapiens, UniProt P07711); assay: Irreversible inhibition of human Cathepsin L assessed as Kinact using Cbz-Phe-Arg-AMC as fluorogenic substrate by fluorometric assay
Procathepsin L [4] = target: T1, Procathepsin L; assay: Irreversible inhibition of human Cathepsin L assessed as second order rate constant using Cbz-Phe-Arg-AMC as fluorogenic substrate by fluorometric assay
Cathepsin B = Cathepsin B (Homo sapiens, UniProt P07858); assay: Irreversible inhibition of human Cathepsin B assessed as Kinact using Cbz-Phe-Arg-AMC as fluorogenic substrate by fluorometric assay

With `O=C(O)c1cccc(C(=O)NCc2ccccc2C(=O)N[C@H](/C=C/S(=O)(=O)c2ccccc2)CCc2ccccc2)c1` the Kinact [1] was 0.0048 s⁻¹ and the Second-order inactivation rate constant (kinact/Ki) [2] was 0.0065 10^5/M/s.

`O=C(NCc1ccccc1C(=O)N[C@H](/C=C/S(=O)(=O)Oc1ccccc1)CCc1ccccc1)c1ccncc1` was tested, and the Kinact [1] was 0.0078 s⁻¹, the Second-order inactivation rate constant (kinact/Ki) [2] was 8.67 10^5/M/s and the Kinact (Procathepsin L [3]) was 0.0066 s⁻¹. For the same compound, the Second-order inactivation rate constant (Procathepsin L [4]) was 5.74 10^3/M/s and the Kinact (Cathepsin B) was 0.0027 s⁻¹.

`O=C(Cc1ccccc1C(=O)N[C@H](/C=C/S(=O)(=O)c1ccccc1)CCc1ccccc1)Nc1ccc(C(=O)O)cc1` was tested, and the Kinact [1] was 0.001 s⁻¹ and the Second-order inactivation rate constant (kinact/Ki) [2] was 3.45 10^3/M/s.

With `O=C(Cc1ccccc1C(=O)N[C@H](/C=C/S(=O)(=O)c1ccccc1)CCc1ccccc1)Nc1cccc(C(=O)O)c1` the Kinact [1] was 0.0074 s⁻¹ and the Second-order inactivation rate constant (kinact/Ki) [2] was 4.2 10^2/M/s.

For `CC(=O)N(Cc1ccccc1C(=O)N[C@H](/C=C/S(=O)(=O)c1ccccc1)CCc1ccccc1)C(C)=O`, the Kinact [1] was 0.0017 s⁻¹ and the Second-order inactivation rate constant (kinact/Ki) [2] was 0.018 10^5/M/s.

`CC(=O)NCc1ccccc1C(=O)N[C@H](/C=C/S(=O)(=O)c1ccccc1)CCc1ccccc1` was tested, and the Kinact [1] was 0.0035 s⁻¹ and the Second-order inactivation rate constant (kinact/Ki) [2] was 0.0075 10^5/M/s.

With `O=C(NCc1ccccc1C(=O)N[C@H](/C=C/S(=O)(=O)c1ccccc1)CCc1ccccc1)c1cccc(O)c1` the Kinact [1] was 0.0022 s⁻¹ and the Second-order inactivation rate constant (kinact/Ki) [2] was 0.033 10^5/M/s.

For `CN1CCN(C(=O)N[C@@H](Cc2ccccc2)C(=O)N[C@H](/C=C/S(=O)(=O)c2ccccc2)CCc2ccccc2)CC1` [K-777], the Second-order inactivation rate constant (Procathepsin L [4]) was 9.5 10^5/M/s.

`CNC(=O)Cc1ccccc1C(=O)N[C@H](/C=C/S(=O)(=O)c1ccccc1)CCc1ccccc1` was tested, and the Kinact [1] was 0.0026 s⁻¹ and the Second-order inactivation rate constant (kinact/Ki) [2] was 5.53 10^3/M/s.

In the case of `O=C(NCc1ccccc1C(=O)N[C@H](/C=C/S(=O)(=O)c1ccccc1)CCc1ccccc1)c1ccccc1`, the Kinact [1] is reported as 0.0021 s⁻¹, the Second-order inactivation rate constant (kinact/Ki) [2] is reported as 0.21 10^5/M/s and the Kinact (Procathepsin L [3]) is reported as 0.0077 s⁻¹. The Second-order inactivation rate constant (Procathepsin L [4]) was 5.17 10^3/M/s and the Kinact (Cathepsin B) was 0.0033 s⁻¹.
